Assay results taken from EP0973746B1, “SUBSTITUTED 3-CYANO QUINOLINES” (Wyeth Holdings Corporation, priority 1997, dated 1998).

Sequences of proteins named here, by UniProt entry; tags and fusion partners are left off. Residues count along the entry.
UniProt P29317, 24-976, species assumed: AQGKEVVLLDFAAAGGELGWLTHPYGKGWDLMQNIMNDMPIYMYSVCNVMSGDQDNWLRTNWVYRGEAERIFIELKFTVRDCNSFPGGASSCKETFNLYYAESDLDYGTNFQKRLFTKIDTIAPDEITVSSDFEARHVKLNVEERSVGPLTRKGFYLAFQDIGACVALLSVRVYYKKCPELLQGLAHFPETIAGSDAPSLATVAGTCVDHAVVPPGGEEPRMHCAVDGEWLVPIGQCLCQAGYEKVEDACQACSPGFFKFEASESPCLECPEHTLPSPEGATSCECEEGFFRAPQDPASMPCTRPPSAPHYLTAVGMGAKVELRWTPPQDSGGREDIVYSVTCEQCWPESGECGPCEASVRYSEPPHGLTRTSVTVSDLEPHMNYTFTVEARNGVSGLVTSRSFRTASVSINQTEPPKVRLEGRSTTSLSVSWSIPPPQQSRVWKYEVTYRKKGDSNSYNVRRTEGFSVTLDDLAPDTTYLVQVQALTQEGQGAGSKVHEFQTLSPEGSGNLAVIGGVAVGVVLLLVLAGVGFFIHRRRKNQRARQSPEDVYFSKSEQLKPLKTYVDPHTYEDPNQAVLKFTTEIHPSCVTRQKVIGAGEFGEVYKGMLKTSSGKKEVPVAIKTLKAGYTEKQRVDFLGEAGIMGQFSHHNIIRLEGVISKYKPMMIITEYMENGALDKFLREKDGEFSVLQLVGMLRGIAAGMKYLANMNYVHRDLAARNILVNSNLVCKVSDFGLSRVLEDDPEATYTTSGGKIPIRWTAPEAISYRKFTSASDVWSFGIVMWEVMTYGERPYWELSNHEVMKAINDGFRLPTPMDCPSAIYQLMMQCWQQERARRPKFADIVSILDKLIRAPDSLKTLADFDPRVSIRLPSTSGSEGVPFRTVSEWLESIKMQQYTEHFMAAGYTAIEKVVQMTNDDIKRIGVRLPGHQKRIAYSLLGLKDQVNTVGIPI

Target: Epithelial Cell Kinase (ECK) (Homo sapiens, UniProt P29317)
Experiment: biochemical
[1] = Eck IC50, pH 7.2, nonradioactive format

Row | SMILES | IC50 [1] [µM] | also measured
1 | COc1cc2ncc(C#N)c(Nc3cccc(Br)c3)c2cc1[N+](=O)[O-] [Example 6] | > 25 | 
2 | COc1cc2ncc(C#N)c(Nc3cccc(Br)c3)c2cc1N [Example 7, 6-Amino-4-[(3-bromophenyl)amino] -7-methoxy-3-quinolinecarbonitrile] | > 27.1 | 
3 | CC#CC(=O)Nc1cc2c(Nc3cccc(Br)c3)c(C#N)cnc2cc1OC [Example 8, N-[4-[(3-Bromophenyl)amino]-3-cyano-7-methoxy-6-guinolinyl]-2-butynamide] | < 0.0459 | 
4 | C=CC(=O)Nc1cc2c(Nc3cccc(Br)c3)c(C#N)cnc2cc1OC [Example 9, N-[4-[(3-Bromophenyl)amino]-3-cyano-7-methoxy-6-quinolinyl]-2-propenamide] | > 47.2 | 
5 | N#Cc1cnc2ccc([N+](=O)[O-])cc2c1Nc1cccc(Br)c1 [Example 13, 4-[(3-Bromophenyl)amino]-6-nitro-3-quinolinecarbonitrile] | > 27.1 | 
6 | N#Cc1cnc2ccc(N)cc2c1Nc1cccc(Br)c1 [Example 14, 6-Amino-4-[(3-bromophenyl)amino]-3-quinolinecarbonitrile] | > 29.5 | 
7 | CC#CC(=O)Nc1ccc2ncc(C#N)c(Nc3cccc(Br)c3)c2c1 [Example 15, N-[4-[(3-Bromophenyl)amino]-3-cyano-6-quinolinyl]-2-butynamide] | < 0.0494 | 
8 | C=CC(=O)Nc1ccc2ncc(C#N)c(Nc3cccc(Br)c3)c2c1 [Example 18, N-[4-[(3-Bromophenyl)amino]-3-cyano-6-quinolinyl]-2-propenamide] | > 50.9 | 
9 | COc1cc2ncc(C#N)c(Nc3cccc(F)c3)c2cc1OC [Example 35, 4-[(3-Fluorophenyl)amino]-6,7-dimethoxy-3-quinolinecarbonitrile] | > 61.9 | 
10 | COc1cc2ncc(C#N)c(Nc3cccc(Cl)c3)c2cc1OC [Example 41, 4-[(3-Chlorophenyl)amino]-6,7-dimethoxy-3-quinolinecarbonitrile] | > 58.9 | 
11 | COc1cc2ncc(C#N)c(N(C)c3ccccc3)c2cc1OC [Example 44, 4-[(Methylphenyl)amino]-6,7-dimethoxy-3-quinolinecarbonitrile] |  | IC50 (read-out: Eck IC50, pH 7.2): > 62.6 µM
12 | COc1cc2ncc(C#N)c(Nc3cccc(C#N)c3)c2cc1OC [Example 45, 4-[(3-Cyanophenyl)amino]-6,7-dimethoxy-3-quinolinecarbonitrile] | > 60.5 | 
13 | COc1cc2ncc(C#N)c(Nc3ccc(F)cc3)c2cc1OC [Example 46, 4-((4-Fluorophenyl)amino]-6,7-dimethoxy-3-quinolinecarbonitrile] | > 61.9 | 
14 | COc1cc2ncc(C#N)c(Nc3cccc(CO)c3)c2cc1OC [Example 48, 4-[(3-(hydroxymethyl)phenyl)amino]-6,7-dimethoxy-3-quinolinecarbonitrile] | > 59.6 | 
15 | COc1cc2ncc(C#N)c(Oc3cccc(Br)c3)c2cc1OC [Example 49, 4-(3-Bromophenoxy)-6,7-dimethoxy-3-quinolinecarbonitrile] | > 51.9 | 
16 | COCC=CC(=O)Nc1ccc2ncc(C#N)c(Nc3cccc(Br)c3)c2c1 [Example 65, 4-Methoxy-but-2-enoic acid [4-(3-bromo-phenylamino)-3-cyano-quinolin-6-yl]-amide] | > 22.9 | 
17 | COc1cc2c(Nc3ccc(C)c(O)c3)c(C#N)cnc2cc1OCCN1CCOCC1 [Example 83, 4-(3-Hydroxy-4-methyl-phenylamino)-6-methoxy-7-(2-morpholin-4-yl-ethoxy)-quinoline-3-carbonitrile] | > 46 | 
18 | COc1cc2c(Nc3cc(O)c(Cl)cc3F)c(C#N)cnc2cc1OCCN(C)C [Example 86, 4-(4-Chloro-2-fluoro-5-hydroxy-phenylamino)-7-(2-dimethylamino-ethoxy)-6-methoxy-quinoline-3-carbonitrile] | > 46.4 | 
19 | COc1cc2c(Nc3cc(O)c(Cl)cc3F)c(C#N)cnc2cc1OCCN1CCOCC1 [Example 87, 4-(4-Chloro-2-fluoro-5-hydroxy-phenylamino)-6-methoxy-7-(2-morpholin-4-yl-ethoxy)-quinoline-3-carbonitrile] | > 42.3 | 
20 | C=CC(=O)Nc1ccc2ncc(C#N)c(Nc3cccc(F)c3)c2c1 [Example 88, N-[3-Cyano-4-(3-fluorophenylamino)quinolin-6-yl]acrylamide] | > 60.2 | 
21 | COc1cc2ncc(C#N)c(Nc3cccc([N+](=O)[O-])c3)c2cc1OC [Example 89, 6.7-Dimethoxy-4-(3-nitrophenylamino)quinoline-3-carbonitrile] | > 28.6 | 
22 | CCOc1cc2c(Nc3ccc(C)c(O)c3)c(C#N)cnc2cc1OC [Example 97, 6-Ethoxy-4-(3-hydroxy-4-methylphenylamino)-7-methoxyquinoline-3-carbonitrile] | > 28.7 | 
23 | Cc1cc([N+](=O)[O-])cc2c(Nc3cccc(Br)c3)c(C#N)cnc12 [Example 105, 4-[(3-Bromophenyl)amino]-8-methyl-6-nitro-3-quinolinecarbonitrile] | > 26.1 | 
24 | CN(C)Cc1cc([N+](=O)[O-])cc2c(Nc3cccc(Br)c3)c(C#N)cnc12 [Example 108, 4-[(3-Bromophenyl)amino]-8-dimethylaminomethyl-6-nitro-3-quinolinecarbonitrile] | > 23.5 | 
25 | CN(C)Cc1cc(N)cc2c(Nc3cccc(Br)c3)c(C#N)cnc12 [Example 109, 6-Amino-4-[(3-bromophenyl)amino]-8-dimethylaminomethyl-3-quinolinecarbonitrile] | > 25.2 | 

Row | SMILES | IC50 [1] [µM] | also measured
26 | CC#CC(=O)Nc1cc(CN(C)C)c2ncc(C#N)c(Nc3cccc(Br)c3)c2c1 [Example 110, N-{4-[(3-Bromophenyl)amino]-3-cyano-8-dimethylaminomethyl-6-quinolinyl} -2-butynamide] | > 43.3 | 
27 | CC(=O)Nc1cc(CN(C)C)c2ncc(C#N)c(Nc3cccc(Br)c3)c2c1 [Example 112, N-{4-[(3-Bromophenyl)amino]-3-cyano-8-dimethylaminomethyl-6-quinolinyl} acetamide] | > 22.8 | 
28 | COc1cc2ncc(C#N)c(Nc3ccc(F)c(Cl)c3)c2cc1OCCCN1CCOCC1 [Example 125] | 42.5 | 
29 | COc1cc2ncc(C#N)c(Nc3cccc(Br)c3)c2cc1OCCCN1CCOCC1 [Example 126] |  | IC50 (Eck IC50): < 0.0402 µM
30 | COc1cc2ncc(C#N)c(Nc3ccc(Cl)cc3F)c2cc1OCCCN1CCOCC1 [Example 127] |  | IC50 (Eck IC50): > 42.5 µM
31 | COc1cc2ncc(C#N)c(Nc3ccc(C)c(O)c3)c2cc1OCCCN1CCOCC1 [Example 128] |  | IC50 (Eck IC50): > 44.6 µM
32 | N#Cc1cnc2ccc(N)cc2c1Nc1cccc(I)c1 [Example 130, 6-Amino-4-[(3-iodophenyl)amino]-3-quinolinecarbonitrile] | > 25.9 | 
33 | N#Cc1cnc2ccc([N+](=O)[O-])cc2c1Nc1cccc(I)c1 [Example 131, 4-[(3-Iodophenyl)amino]-6-nitro-3-quinolinecarbonitrile] | > 58.8 | 
34 | Cc1cccc(Nc2c(C#N)cnc3ccc(N)cc23)c1 [Example 133, 6-Amino-4-[(3-methylphenyl)amino]-3-quinolinecarbonitrile] | > 72.9 | 
35 | Cc1cccc(Nc2c(C#N)cnc3ccc([N+](=O)[O-])cc23)c1 [Example 134] | > 32.9 | 
36 | C=CC(=O)Nc1ccc2ncc(C#N)c(Nc3cccc(Cl)c3)c2c1 [Example 135, N-4-[(3-Chlorophenyl)amino]-3-cyano-6-guinolinyl-2-propenarnide] | > 57.3 | 
37 | N#Cc1cnc2ccc(N)cc2c1Nc1cccc(Cl)c1 [Example 136, 6-Amino-4-[(3-chlorophenyl)amino]-3-quinolinecarbonitrile] | > 67.9 | 
38 | C=CC(=O)Nc1ccc2ncc(C#N)c(Nc3cccc(OC)c3)c2c1 [Example 138, N-{3-Cyano-4-[(3-methoxyphenyl)amino]-6-quinolinyl}-2-propenamide] | > 58.1 | 
39 | CC#CC(=O)Nc1ccc2ncc(C#N)c(Nc3cccc(OC)c3)c2c1 [Example 139, N-{3-Cyano-4-[(3-methoxyphenyl)amino]-6-quinolinyl}-2-butynamide] | > 56.1 | 
40 | COc1cccc(Nc2c(C#N)cnc3ccc(NC(=O)C#CCN4CCCCC4)cc23)c1 [Example 140, N-{3-cyano-4-[(3-methoxyphenyl)amino]-6-quinolinyl}-4-piperidino-2-butynamide] | > 45.5 | 
41 | COc1cccc(Nc2c(C#N)cnc3ccc(N)cc23)c1 [Example 141, 6-Amino-4-[(3-methoxyphenyl)amino]-3-quinolinecarbonitrile] | > 68.9 | 
42 | CC#CC(=O)Nc1ccc2ncc(C#N)c(Nc3ccc(F)c(Cl)c3)c2c1 [Example 143, N-{4-[(3-Chloro-4-fluoro-phenyl)amino]-3-cyano-6-quinolinyl}-2-butynamide] | > 52.8 | 
43 | C=CC(=O)Nc1ccc2ncc(C#N)c(Nc3ccc(F)c(Cl)c3)c2c1 [Example 144, N-{4-[(3-Chloro-4-fluorophenyl)amino]-3-cyano-6-quinolinyl}-2-propenamide] | > 54.5 | 
44 | N#Cc1cnc2ccc(N)cc2c1Nc1ccc(F)c(Cl)c1 [Example 149, 6-Amino-4-[(3-chloro-4-fluorophenyl)amino]-3-quinolinecarbonitrile] | > 64 | 
45 | N#Cc1cnc2ccc([N+](=O)[O-])cc2c1Nc1ccc(F)c(Cl)c1 [Example 150, 4-[(3-chloro-4-fluorophenyl)amino]-6-nitro-3-quinolinecarbonitrile] | > 29.2 | 
46 | C=CC(=O)Nc1ccc2ncc(C#N)c(Nc3ccc(Br)cc3)c2c1 [Example 151, N-{4-[(4-Bromophenyl)amino]-3-cyano-6-quinolinyl} -2-propenamide] | > 50.9 | 
47 | N#Cc1cnc2ccc(N)cc2c1Nc1ccc(Br)cc1 [Example 152, 6-Amino-4-[(4-bromophenyl)amino]-3-quinolinecarbonitrile] | > 29.5 | 
48 | N#Cc1cnc2ccc([N+](=O)[O-])cc2c1Nc1ccc(Br)cc1 [Example 153, 4-[(4-Bromophenyl)amino]-6-nitro-3-quinolinecarbonitrile] | > 27.1 | 
49 | C=CC(=O)Nc1ccc2ncc(C#N)c(Nc3ccc(F)c(F)c3)c2c1 [Example 154, N-{3-Cyano-4-[(3,4-difluorophenyl)amino]-6-quinolinyl]-2-propenamide] | < 0.0571 | 
50 | N#Cc1cnc2ccc(N)cc2c1Nc1ccc(F)c(F)c1 [Example 155, 6-Amino-4-[(3.4-difluorophenyl)amino]-3-quinolinecarbonitrile] | > 67.5 | 

Where two headings read alike, the source gives them in different places.
